# Apparent affinities of Ab-95 variants for a coronavirus HR2 peptide

All variants were tested on one target, the spike HR2 peptide PDVDLGDISGINAS (SARS-CoV-2).

The variants keep the heavy chain, the linker and the frameworks of Ab-95 (scFv order VH, a (GGGGS)3 linker, VL).
VH: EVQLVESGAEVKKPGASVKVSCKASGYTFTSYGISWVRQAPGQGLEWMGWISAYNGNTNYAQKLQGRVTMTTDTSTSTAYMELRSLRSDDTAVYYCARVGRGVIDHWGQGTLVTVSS
VL: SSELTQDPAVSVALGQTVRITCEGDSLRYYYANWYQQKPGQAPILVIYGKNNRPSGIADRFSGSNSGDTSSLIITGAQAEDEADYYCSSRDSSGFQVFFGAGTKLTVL

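Phage display of a naive human antibody library on the peptide gave the parent. Variants in AAYL52 differ from the parent at up to three CDR positions; double and triple changes were sampled at random. The scFvs were displayed on barcoded MATa yeast, the peptide on MATalpha yeast. Pairs that bind mate more often; barcode pairs of the diploids are counted by sequencing. Each replicate has its own calibration line, from reference interactions of the BCL2 family. There are three technical replicates.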

Each variant is given by its three light chain CDRs, as the data file delimits them; those of the parent are EGDSLRYYYAN, GKNNRPS, SSRDSSGFQVF.
Affinities are written as log10 Kd with Kd in nM; a lower number is a better binder.
The mean shown is taken over the replicates in which the pair was detected.
Where no diploid with the target was found in that replicate, the entry reads "ND": below detection, most likely a poor binder, though not proof of it.
Parent in this assay: reference entry 2.31, copy in this library 2.25.
As a blank, each scFv also met three strains without target: over library AAYL52, 28% of these pairings were detected, typically at 3.91 and seldom below 2.90. The control count says in how many pairings with the empty strains this scFv gave a signal, with their mean in brackets.

CDR-L1,CDR-L2,CDR-L3,"replicates, log10 nM",mean log10 Kd (nM),empty controls
EGDSLRYYYAN,GKNNWPS,SSRASSGFQVF,ND ND ND,ND,1 of 9 (3.90)
HHDSLRYYYAN,GKNNRPS,SDRDSSGFQVF,ND 3.71 2.83,3.27,2 of 9 (3.07)
EGDSLRYYYAN,GKNNRPR,SRRDSSGFQVY,ND ND ND,ND,2 of 9 (4.41)
EGDSLSYYYAN,GKNNRPR,SSRDSSGFQVF,2.45 3.08 2.22,2.58,0 of 9
EGDSLRYYYAN,GKNNYNS,SSRQSSGFQVF,ND ND ND,ND,0 of 9
ESDSLRYYYAN,GKKNRPS,SSRRSSGFQVF,ND 4.43 ND,4.43,1 of 9 (5.39)
HGDSLRYPYAN,GKNNRPS,SSRDSSGFQVF,2.32 1.55 ND,1.93,0 of 9
EGDSLRYYYAN,GKNYRPS,RSRDSSPFQVF,ND ND ND,ND,2 of 9 (4.05)
EGDSLRYKYAN,GDNNRPS,SSRDSSMFQVF,2.38 2.56 2.03,2.33,2 of 9 (4.54)
EGDSLRYYTAN,MKNNRPS,SSRDSSNFQVF,3.32 ND ND,3.32,0 of 9
EGDSLRYYYAM,GSNQRPS,SSRDSSGFQVF,ND ND ND,ND,0 of 9
EGDSLRYYYAP,GKNNRPS,SIRISSGFQVF,ND 4.12 ND,4.12,0 of 9
EGASLRYYYAN,GKNNRAS,SSRDSSGWQVF,2.30 2.20 3.62,2.70,3 of 9 (4.51)
FGDSLRYYYAN,GHNDRPS,SSRDSSGFQVF,3.91 3.37 4.05,3.78,3 of 9 (3.80)
NGDSLRYYYAN,GKNNRPS,SSRDSSGHQVN,ND ND 3.51,3.51,1 of 9 (2.40)
EGTSPRYYYAN,GKNNRPT,SSRDSSGFQVF,3.16 2.56 3.13,2.95,2 of 9 (3.91)
VGDSLRYYYAN,GKNNRPS,YSRYSSGFQVF,2.16 1.93 1.90,1.99,3 of 9 (4.43)
EGDSLRYYCAN,GKNNRPS,SERDSAGFQVF,ND 3.18 3.79,3.48,2 of 9 (3.26)
ECDSLRYYYAN,GKNNRPS,SSRDSSGFQVF,ND 4.52 4.30,4.41,3 of 9 (4.10)
EGDVLRYYYAN,QKNNRPS,SSRDSSGHQVF,3.61 ND ND,3.61,3 of 9 (3.79)
HGCKLRYYYAN,GKNNRPS,SSRDSSGFQVF,ND 5.09 4.52,4.81,2 of 9 (4.44)
EGDSLRDYYAN,GKNNRPV,SSRDSSGFIVF,3.19 3.25 3.28,3.24,0 of 9
EGDSGPYYYAD,GKNNRPS,SSRDSSGFQVF,ND ND ND,ND,1 of 9 (3.05)
EGDSLRYYYAN,GKENRPS,SSIDSSGRQVF,3.15 3.57 4.56,3.76,4 of 9 (4.53)
FGDSLRYYYAN,GKNNRPS,SSRDNGGFQVF,2.92 2.23 2.98,2.71,3 of 9 (3.24)
EGISLRYMYAN,GKNNRPS,SSRPSSGFQVF,2.44 2.46 2.75,2.55,3 of 9 (4.23)
EGDSLRYYFAH,GKNNRPS,SSRDSSGFVVF,4.31 ND ND,4.31,5 of 9 (3.57)
EGDSLRYYLAN,GKENRPS,SSHDSSGFQVF,3.21 2.71 2.89,2.94,2 of 9 (4.40)
DGDSLRYYEAN,GKINRPS,SSRDSSGFQVF,3.97 3.10 2.71,3.26,6 of 9 (4.00)
EGDSLRYYYAN,GKNNRPS,SSHKSSGFQNF,ND ND ND,ND,0 of 9
EGDSLRYYYAN,GKNNRPS,SIRVSSGFPVF,2.42 2.82 1.92,2.38,1 of 9 (3.34)
DGDSLRYYYSN,GKNSRPS,SSRDSSGFQVF,3.13 2.79 3.74,3.22,4 of 9 (3.45)
EGDSLRYHYAN,GKNNRPS,SYRDSSGFQVF,2.27 2.00 2.08,2.12,2 of 9 (4.11)
EGDSLRYYGAN,GKNNRPS,SSRSSSGFQVF,1.19 1.08 0.79,1.02,5 of 9 (3.95)
EGDSLRYYYMN,GKNNRPS,SSRDSSNFIVF,5.13 ND ND,5.13,0 of 9
EGDSLRYYYLN,NKNNRPS,SSRDSSGFQVF,ND ND ND,ND,1 of 9 (3.58)
EGDSLRHYYAN,GKNNRPD,SSRDSLGFQVF,2.85 2.19 2.32,2.46,1 of 9 (2.20)
EGDSLRYYYAN,GKNNRTS,YSRDSSGFQHF,2.99 3.79 3.58,3.46,1 of 9 (5.03)
EGDSLKYYYCN,GKNNRPS,SSRDSSGYQVF,2.38 2.15 2.43,2.32,3 of 9 (3.71)
HGDSLGYYYAN,GKNNRPG,SSRDSSGFQVF,1.81 1.71 1.46,1.66,3 of 9 (3.79)
EGDSLRYCYAN,GKNNRRW,SSRDSSGFQVF,3.57 3.42 ND,3.49,3 of 9 (4.13)
EGDSLRSYYAN,GYNNRPS,SSRWSSGFQVF,ND ND 3.86,3.86,1 of 9 (2.94)
EGDSLSYYYAN,GKNNRLS,SSRDSSLFQVF,3.20 4.60 2.54,3.45,2 of 9 (4.15)
EGDSLRYYYAV,GKNNRHG,SSRDSSGFQVF,3.59 ND ND,3.59,2 of 9 (3.66)
EGDSLRYYYAN,GKNNRPS,QSRGSSGFGVF,2.85 2.63 3.22,2.90,3 of 9 (4.34)
EGDSLRYFYAN,GKNNRPT,SSRDGSGFQVF,3.93 3.42 3.71,3.69,4 of 9 (3.89)
EGDSLRYYYAN,GDNNRPS,SSRDSSGFQVV,1.83 1.51 1.26,1.53,9 of 9 (4.38)
EGDSARYYYAN,GKRNRPS,SSRDYSGFQVF,4.79 ND 3.51,4.15,2 of 9 (3.66)
EGDSAQYYYAN,GKNNRPS,SSRDSSGPQVF,3.50 3.34 ND,3.42,1 of 9 (3.24)
EGDSDRYYLAN,GKNNQPS,SSRDSSGFQVF,4.29 ND 4.10,4.19,2 of 9 (3.68)
EGDDLRYYYAN,GINNRPS,SSRDSSGFQVF,ND 3.19 2.16,2.67,4 of 9 (2.96)

The opening 7 entries, copied out:

| CDR-L1 | CDR-L2 | CDR-L3 | replicates, log10 nM | mean log10 Kd (nM) | empty controls |
|---|---|---|---|---|---|
| EGDSLRYYYAN | GKNNWPS | SSRASSGFQVF | ND ND ND | ND | 1 of 9 (3.90) |
| HHDSLRYYYAN | GKNNRPS | SDRDSSGFQVF | ND 3.71 2.83 | 3.27 | 2 of 9 (3.07) |
| EGDSLRYYYAN | GKNNRPR | SRRDSSGFQVY | ND ND ND | ND | 2 of 9 (4.41) |
| EGDSLSYYYAN | GKNNRPR | SSRDSSGFQVF | 2.45 3.08 2.22 | 2.58 | 0 of 9 |
| EGDSLRYYYAN | GKNNYNS | SSRQSSGFQVF | ND ND ND | ND | 0 of 9 |
| ESDSLRYYYAN | GKKNRPS | SSRRSSGFQVF | ND 4.43 ND | 4.43 | 1 of 9 (5.39) |
| HGDSLRYPYAN | GKNNRPS | SSRDSSGFQVF | 2.32 1.55 ND | 1.93 | 0 of 9 |

The measurements come from Engelhart et al. 2022 (doi:10.1038/s41597-022-01779-4) through the FLAb antibody collection.